Values quoted from earlier work, collected in patent US20100330171A1, “Dietary Supplement for Eye Health” (priority 2008, published 2010).

Biological target: T1, MMP-2 (Homo sapiens, UniProt P08253)
T1 sequence (P08253 110-660): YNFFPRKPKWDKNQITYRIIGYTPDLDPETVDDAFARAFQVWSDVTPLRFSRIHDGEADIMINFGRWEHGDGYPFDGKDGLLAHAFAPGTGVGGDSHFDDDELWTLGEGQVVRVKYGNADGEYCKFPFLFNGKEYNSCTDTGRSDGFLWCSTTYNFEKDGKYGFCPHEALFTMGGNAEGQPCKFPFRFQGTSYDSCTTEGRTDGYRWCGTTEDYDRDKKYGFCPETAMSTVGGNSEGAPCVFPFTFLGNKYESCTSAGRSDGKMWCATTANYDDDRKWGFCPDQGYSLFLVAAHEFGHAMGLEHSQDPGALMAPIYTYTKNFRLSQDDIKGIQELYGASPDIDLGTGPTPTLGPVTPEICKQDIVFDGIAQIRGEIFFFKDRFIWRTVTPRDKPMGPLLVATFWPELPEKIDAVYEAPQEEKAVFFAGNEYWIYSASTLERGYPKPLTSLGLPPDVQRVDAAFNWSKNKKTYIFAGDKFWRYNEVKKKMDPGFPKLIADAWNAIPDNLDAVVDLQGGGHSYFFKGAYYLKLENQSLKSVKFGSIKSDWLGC

## Epigallocatechin-3-gallate [EGCG]
  inhibition of MMP-2: inhibits
